Reference: patent US20200181277A1 (Genmab, published 2020)

Amino acid sequences for entries named in this document (tags omitted). Residues count along the entry.
UniProt P02745, 23-245 limits assumed, chain 1 of 3: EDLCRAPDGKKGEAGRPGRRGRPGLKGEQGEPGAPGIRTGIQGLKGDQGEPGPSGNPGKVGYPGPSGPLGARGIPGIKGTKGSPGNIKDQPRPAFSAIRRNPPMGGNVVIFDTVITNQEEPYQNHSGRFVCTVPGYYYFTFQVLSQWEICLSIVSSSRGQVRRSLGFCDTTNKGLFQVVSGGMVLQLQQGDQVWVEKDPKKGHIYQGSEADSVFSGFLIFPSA
purified human C1q, UniProt P02746, 28-253 limits assumed, chain 2 of 3: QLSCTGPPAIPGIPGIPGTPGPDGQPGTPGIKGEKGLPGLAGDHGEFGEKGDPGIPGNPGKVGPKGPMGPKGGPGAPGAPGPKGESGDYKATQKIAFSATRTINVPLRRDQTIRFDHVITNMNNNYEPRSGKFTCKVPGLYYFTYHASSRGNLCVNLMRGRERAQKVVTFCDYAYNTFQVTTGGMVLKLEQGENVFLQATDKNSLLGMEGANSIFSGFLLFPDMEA
purified human C1q, UniProt P02747, 29-245 limits assumed, chain 3 of 3: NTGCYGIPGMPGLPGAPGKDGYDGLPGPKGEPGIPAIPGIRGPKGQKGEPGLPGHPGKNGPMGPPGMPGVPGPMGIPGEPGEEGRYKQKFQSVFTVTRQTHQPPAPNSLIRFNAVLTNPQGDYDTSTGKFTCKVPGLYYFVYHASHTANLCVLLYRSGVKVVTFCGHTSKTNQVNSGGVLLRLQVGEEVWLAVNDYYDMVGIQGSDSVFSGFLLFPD

Assays:
[1] = target: T1, purified human C1q (human, UniProt P02745 23-245; P02746 28-253; P02747 29-245); assay: cell-based or functional assay
[2] = target: T1, purified human C1q; assay: C1q binding ELISA: plate coated with 1 µg/mL antibody, purified C1q titrated; SD 12.2, n 3

B1: IgG1-CONA-C49W (antibody)
heavy: not shown
light: EIVLTQSPGTLSLSPGERATLSCRASQGISRSYLAWYQQKPGQAPSLLIYGASSRATGIPDRFSGSGSGTDFTLTISRLEPEDFAVYYCQQFGSSPWTFGQGTKVEIKRTVAAPSVFIFPPSDEQLKSGTASVVCLLNNFYPREAKVQWKVDNALQSGNSQESVTEQDSKDSTYSLSSTLTLSKADYEKHKVYACEVTHQGLSSPVTKSFNRGEC
With B1 the “C1q EC90 (µg/mL), viability assay on WIL2-S SF cells” value [1] was greater than 2.5 µg/mL and the EC50 [2] was 15.2 mg/L.
